Experimental findings from PubChem BioAssay AID1259421 (Broad Institute, 2018) are described below.

Molecules are shown by their SMILES. Where “and” joins values, the source holds several entries; their conditions need not be identical. Equal entries are not always repeated. This is a selection; strong and weak results do not stand in their true shares. Calls of active or inactive are those of the source. Cut-off read from the data, not from the text of the source: active = activity change below about -70%; inconclusive = no clear call, values can overlap the other calls; inactive = above that.

This assay can be described thus: Toxoplasma gondii ME49Luc growth in HeLa cells, luciferase, no IFN-y, primary screen (AID 1259421). As to conditions: T. gondii ME49Luc in HeLa, 72 h, stronger effect = lower value, concentration not given here.
For `CCC(=O)N(c1ccccc1)C1(COC)CCN(CCc2cccs2)CC1`, the activity change, negative = inhibition was inactive: 24%. On to `CN(CCCl)CCCl`, for which the activity change, negative = inhibition was inactive: -34.7% and inactive: 15.1%.
